This passage reports activity (Tm shift, normalised) results from PubChem BioAssay AID651658 (Broad Institute, 2012).

Chains of the proteins cited; added tags and fusions are not shown.
UniProt Q9HCT0, whole entry: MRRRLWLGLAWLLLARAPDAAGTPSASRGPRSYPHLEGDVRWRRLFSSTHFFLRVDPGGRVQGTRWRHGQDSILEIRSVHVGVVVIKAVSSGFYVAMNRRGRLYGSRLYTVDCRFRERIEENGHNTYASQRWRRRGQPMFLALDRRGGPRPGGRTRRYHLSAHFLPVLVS

Molecules are shown by their SMILES. The entries are a selection whose mix differs from that of the whole data set. Active and inactive are the calls of the source.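 The calls were made as follows: active = mean Tm shift, scaled 0 neutral to 100 positive control, at about 1.3% or above, every replicate too (limit read from the data); inconclusive = no clear call, values can overlap the other calls; inactive = the rest.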

In the experiment the target is Fibroblast growth factor 22 (Homo sapiens) (UniProt Q9HCT0). Description: FGF22 ligand-induced thermal stabilization – biophysical, thermal shift, single point, FGF22 synaptogenesis inhibitor project, primary screen (AID 651658). As to conditions: recombinant FGF22 thermal shift, SYPRO orange fluorescence; at 9.99 µM; stronger effect = higher value; percent of sucrose octasulfate shift, DMSO zero.
As for `CCC(=O)N(c1ccccc1)C1(COC)CCN(CCn2nnn(CC)c2=O)CC1`, the activity (Tm shift, normalised) was inactive: 0.314%.

Take `CCC(=O)N(c1ccccc1)C1(COC)CCN(CCc2cccs2)CC1`: the activity (Tm shift, normalised) is inactive: 0.486%.
